From paper doi:10.1101/2022.10.10.511556 (bioRxiv, 2022)

Target: the molecule itself
Assay: cryo-EM structure

B1: β-arrestin 1 (βarr1), full length rat (natural protein)
chain: MGDKGTRVFKKASPNGKLTVYLGKRDFVDHIDLVDPVDGVVLVDPEYLKERRVYVTLTCAFRYGREDLDVLGLTFRKDLFVANVQSFPPAPEDKKPLTRLQERLIKKLGEHAYPFTFEIPPNLPCSVTLQPGPEDTGKACGVDYEVKAFCAENLEEKIHKRNSVRLVIRKVQYAPERPGPQPTAETTRQFLMSDKPLHLEASLDKEIYYHGEPISVNVHVTNNTNKTVKKIKISVRQYADICLFNTAQYKCPVAMEEADDTVAPSSTFCKVYTLTPFLANNREKRGLALDGKLKHEDTNLASSTLLREGANREILGIIVSYKVKVKLVVSRGGLLGDLASSDVAVELPFTLMHPKPKEEPPHREVPESETPVDTNLIELDTNDDDIVFEDFARQRLKGMKDDKDEEDDGTGSPHLNNR
stoichiometry N: 2
